# Laboratory results: the NIST ThermoML archive (doi:10.1016/j.jct.2016.08.008)
# Numbers after ± are expanded uncertainties.
# Assay: activity coefficient (dimensionless); of the first substance listed, at infinite dilution; xn = mol fraction of the nth substance listed
# Settings: 101.33 kPa, Liquid, Chromatography, x1 = 0
smiles,measurement,setting,value
CCCCOCCCC [dibutyl ether] + CCCCCCCCCCCCn1cc[n+](C)c1.O=S(=O)([N-]S(=O)(=O)C(F)(F)F)C(F)(F)F,activity coefficient,318.15 K,2.46 ± 0.17
same,activity coefficient,328.15 K,2.51 ± 0.17
same,activity coefficient,338.15 K,2.57 ± 0.17
same,activity coefficient,348.15 K,2.62 ± 0.18
same,activity coefficient,358.15 K,2.67 ± 0.18
same,activity coefficient,368.15 K,2.71 ± 0.18
